The results in this text go back to US20040053822A1, “Inducing cellular immune responses to mage2/3 using peptide and nucleic acid compositions” (priority 2002, published 2004).

SMILES strings stand for the structures.

For the assay, the system named is B7-supertype molecules (B*0702, B*3501, B*5101, B*5301, and B*5401). Kind of assay: B7-supertype cross-reactive binding (five alleles). Details: species or system human.
Consider `CC[C@H](C)[C@H](NC(=O)[C@H](Cc1ccc(O)cc1)NC(=O)[C@H](CC(C)C)NC(=O)[C@H](Cc1c[nH]cn1)NC(=O)[C@H](CO)NC(=O)[C@@H](NC(=O)[C@@H]1CCCN1C(=O)[C@@H](N)C(C)C)[C@@H](C)CC)C(=O)N[C@@H](CC(C)C)C(=O)N[C@H](C(=O)O)C(C)C`, for which the “No. of B7 Alleles Crossbound” value was 2.
The result for `CC[C@H](C)[C@H](NC(=O)[C@H](Cc1ccc(O)cc1)NC(=O)[C@H](CC(C)C)NC(=O)[C@H](Cc1c[nH]cn1)NC(=O)[C@H](CO)NC(=O)[C@@H](NC(=O)[C@@H]1CCCN1C(=O)[C@@H](N)Cc1ccccc1)[C@@H](C)CC)C(=O)O` reads 4; that for `CC[C@H](C)[C@H](NC(=O)[C@H](Cc1ccc(O)cc1)NC(=O)[C@H](CO)NC(=O)[C@@H](NC(=O)[C@H](CCC(=O)O)NC(=O)[C@@H](NC(=O)[C@H](CC(C)C)NC(=O)[C@H](C)NC(=O)[C@H](CCCNC(=N)N)NC(=O)[C@@H]1CCCN1C(=O)[C@@H](N)Cc1ccccc1)C(C)C)[C@@H](C)O)C(=O)O`, 3.
With `CC[C@H](C)[C@H](NC(=O)[C@@H](NC(=O)[C@H](CC(C)C)NC(=O)[C@H](CC(C)C)NC(=O)CNC(=O)[C@@H](NC(=O)[C@H](CCCCN)NC(=O)[C@@H]1CCCN1C(=O)[C@@H](N)Cc1ccccc1)[C@@H](C)O)[C@@H](C)CC)C(=O)O`, the “No. of B7 Alleles Crossbound” value is 4.
In the case of `CC[C@H](C)[C@H](NC(=O)[C@H](Cc1c[nH]cn1)NC(=O)[C@@H]1CCCN1C(=O)[C@@H](N)Cc1ccccc1)C(=O)N[C@@H](CO)C(=O)N[C@@H](Cc1ccc(O)cc1)C(=O)N1CCC[C@H]1C(=O)N1CCC[C@H]1C(=O)N[C@@H](CC(C)C)C(=O)O`, the “No. of B7 Alleles Crossbound” value is recorded as 5.
`CC[C@H](C)[C@H](NC(=O)[C@H](Cc1ccc(O)cc1)NC(=O)[C@H](CC(C)C)NC(=O)[C@H](Cc1c[nH]cn1)NC(=O)[C@H](CO)NC(=O)[C@@H](NC(=O)[C@@H]1CCCN1C(=O)[C@@H](N)Cc1ccccc1)[C@@H](C)CC)C(=O)N[C@@H](CC(C)C)C(=O)N[C@H](C(=O)O)C(C)C`: the “No. of B7 Alleles Crossbound” value was determined as 5.
Take `CC[C@H](C)[C@H](NC(=O)[C@H](CC(C)C)NC(=O)[C@H](CC(C)C)NC(=O)CNC(=O)[C@H](C)NC(=O)[C@H](CCCCN)NC(=O)[C@@H]1CCCN1C(=O)[C@@H](N)Cc1ccccc1)C(=O)N[C@H](C(=O)N[C@H](C(=O)O)C(C)C)[C@@H](C)CC`: the “No. of B7 Alleles Crossbound” value was determined as 3.
Next, `CC[C@H](C)[C@H](NC(=O)[C@@H]1CCCN1C(=O)[C@H](Cc1ccc(O)cc1)NC(=O)[C@H](CC(N)=O)NC(=O)[C@H](CCSC)NC(=O)[C@@H](NC(=O)[C@@H](NC(=O)[C@@H]1CCCN1C(=O)[C@@H](N)Cc1ccccc1)[C@@H](C)O)[C@@H](C)O)C(=O)O`: 5; `CC[C@H](C)[C@H](NC(=O)[C@H](Cc1ccc(O)cc1)NC(=O)[C@H](CC(C)C)NC(=O)[C@H](CCSC)NC(=O)[C@H](CO)NC(=O)[C@@H](NC(=O)[C@@H]1CCCN1C(=O)[C@@H](N)C(C)C)[C@@H](C)CC)C(=O)N[C@@H](CC(C)C)C(=O)O`: 3.
The result for `CC[C@H](C)[C@H](NC(=O)[C@@H](NC(=O)[C@H](CC(C)C)NC(=O)[C@H](CC(C)C)NC(=O)CNC(=O)[C@H](C)NC(=O)[C@H](CCCCN)NC(=O)[C@@H]1CCCN1C(=O)[C@@H](N)CCSC)[C@@H](C)CC)C(=O)O` reads 3; that for `CC[C@H](C)[C@H](NC(=O)[C@H](CO)NC(=O)[C@H](CO)NC(=O)[C@H](C)NC(=O)CNC(=O)[C@H](CCC(N)=O)NC(=O)[C@@H]1CCCN1C(=O)[C@@H](N)Cc1ccccc1)C(=O)O`, 3; that for `CC(C)C[C@H](NC(=O)[C@H](C)NC(=O)[C@H](CCCNC(=N)N)NC(=O)[C@@H]1CCCN1C(=O)[C@@H](N)Cc1ccccc1)C(=O)N[C@H](C(=O)N[C@@H](CCC(=O)O)C(=O)N[C@H](C(=O)N[C@@H](CO)C(=O)N[C@@H](Cc1ccc(O)cc1)C(=O)N[C@H](C(=O)O)C(C)C)[C@@H](C)O)C(C)C`, 3.
For the compound `CC[C@H](C)[C@H](NC(=O)[C@H](Cc1ccc(O)cc1)NC(=O)[C@H](CC(C)C)NC(=O)[C@H](Cc1c[nH]cn1)NC(=O)CNC(=O)[C@@H](NC(=O)[C@@H]1CCCN1C(=O)[C@@H](N)Cc1ccccc1)[C@@H](C)CC)C(=O)N[C@@H](Cc1ccccc1)C(=O)N[C@@H](C)C(=O)O`, the “No. of B7 Alleles Crossbound” value is 5.
Next, `CC[C@H](C)[C@H](NC(=O)[C@H](CO)NC(=O)[C@H](CCC(N)=O)NC(=O)[C@H](CO)NC(=O)[C@H](Cc1c[nH]c2ccccc12)NC(=O)[C@H](CC(C)C)NC(=O)[C@@H]1CCCN1C(=O)[C@@H](N)Cc1ccccc1)C(=O)O`: 4; `CC[C@H](C)[C@H](NC(=O)[C@H](Cc1ccc(O)cc1)NC(=O)[C@H](CO)NC(=O)[C@@H](NC(=O)[C@H](CCC(=O)O)NC(=O)[C@@H](NC(=O)[C@H](CC(C)C)NC(=O)[C@H](C)NC(=O)[C@H](CCCNC(=N)N)NC(=O)[C@@H]1CCCN1C(=O)[C@@H](N)Cc1ccccc1)[C@@H](C)CC)[C@@H](C)O)C(=O)O`: 4; `CC[C@H](C)[C@H](NC(=O)[C@H](Cc1ccccc1)NC(=O)[C@@H](NC(=O)[C@H](Cc1ccc(O)cc1)NC(=O)[C@H](CC(C)C)NC(=O)[C@H](Cc1c[nH]cn1)NC(=O)CNC(=O)[C@@H](NC(=O)[C@@H]1CCCN1C(=O)[C@@H](N)Cc1ccccc1)[C@@H](C)CC)[C@@H](C)CC)C(=O)O`: 5.
Take `CC[C@H](C)[C@H](NC(=O)[C@H](CC(C)C)NC(=O)[C@H](CC(C)C)NC(=O)CNC(=O)[C@@H](NC(=O)[C@H](CCCCN)NC(=O)[C@@H]1CCCN1C(=O)[C@@H](N)Cc1ccccc1)[C@@H](C)O)C(=O)O`: the “No. of B7 Alleles Crossbound” value was determined as 3.
In the case of `CC[C@H](C)[C@H](NC(=O)[C@@H](NC(=O)[C@H](Cc1ccc(O)cc1)NC(=O)[C@H](CC(C)C)NC(=O)[C@H](Cc1c[nH]cn1)NC(=O)CNC(=O)[C@@H](NC(=O)[C@@H]1CCCN1C(=O)[C@@H](N)Cc1ccccc1)[C@@H](C)CC)[C@@H](C)CC)C(=O)O`, the “No. of B7 Alleles Crossbound” value is listed as 5.
As to `CC[C@H](C)[C@H](NC(=O)[C@H](CC(C)C)NC(=O)[C@H](CC(C)C)NC(=O)CNC(=O)[C@H](C)NC(=O)[C@H](CCCCN)NC(=O)[C@@H]1CCCN1C(=O)[C@@H](N)Cc1ccccc1)C(=O)O`, the “No. of B7 Alleles Crossbound” value is recorded as 3.
For the compound `CC[C@H](C)[C@H](NC(=O)[C@H](CC(C)C)NC(=O)[C@H](C)NC(=O)[C@H](CCCNC(=N)N)NC(=O)[C@@H]1CCCN1C(=O)[C@@H](N)Cc1ccccc1)C(=O)N[C@@H](CCC(=O)O)C(=O)N[C@H](C(=O)N[C@@H](CO)C(=O)N[C@@H](Cc1ccc(O)cc1)C(=O)N[C@H](C(=O)O)C(C)C)[C@@H](C)O`, the “No. of B7 Alleles Crossbound” value was 3.
Regarding `CSCC[C@H](NC(=O)[C@@H](NC(=O)[C@@H](NC(=O)[C@@H]1CCCN1C(=O)[C@@H](N)Cc1ccccc1)[C@@H](C)O)[C@@H](C)O)C(=O)N[C@@H](CC(N)=O)C(=O)N[C@@H](Cc1ccc(O)cc1)C(=O)N1CCC[C@H]1C(=O)N[C@@H](CC(C)C)C(=O)O`, the “No. of B7 Alleles Crossbound” value is on record as 5.
Next, `CC[C@H](C)[C@H](NC(=O)[C@@H]1CCCN1C(=O)[C@@H]1CCCN1C(=O)[C@H](Cc1ccc(O)cc1)NC(=O)[C@H](CO)NC(=O)[C@@H](NC(=O)[C@H](Cc1c[nH]cn1)NC(=O)[C@@H]1CCCN1C(=O)[C@@H](N)Cc1ccccc1)[C@@H](C)CC)C(=O)O`: 5.
